Where “and” joins values, the source holds several entries; their conditions need not be identical. Identical values can stand only once.
Assays:
[1] = test system: bone marrow-derived macrophages; experiment: Macrophage efferocytosis of neutrophils; assay type: cell-based, mouse
Experimental: An efferocytosis assay kit (Cayman, 601770) was used following the manufacturer’s instructions. Neutrophils were labelled with CFSE and cultured in RPMI with 2% serum for 12 h to induce cell death. Bone marrow-derived macrophages cultured for 7 days were seeded at a density of 4 × 10^5 cells per well in a 6-well plate with DMEM/F12 containing 10% FBS and 100 units ml^−1 penicillin/streptomycin. […] Macrophages were collected, labelled with CytoTell Blue, and then incubated with CFSE-labelled dead/dying neutrophils at different ratios (1:1, 1:2, and 1:4) at 37 °C for 15 min. The reaction was stopped by washing cells with ice-cold PBS containing 5% FBS and 1 mM EDTA. Cells were analysed with BD LSR Fortessa X-20 and FlowJo software (BD Biosciences). Macrophages were identified by CytoTell Blue-positive staining, and the efferocytosis index was calculated as the percentage of CFSE-positive cells in CytoTell Blue-labelled macrophages.
Macrophages (4 × 10^5 cells per well in a 6-well plate) were transfected with 10 nM scrambled siRNA (Silencer Select Negative Control No. 1 siRNA, Thermo Fisher, 4390843) or Silencer Select Pre-Designed siRNA against mouse TSP-1 (Thermo Fisher, s124596) using Reduced-Serum Medium (Opti-MEM, Gibco) and Lipofectamine RNAiMAX (Invitrogen, 51985034) for 6 h. The medium was then replaced with fresh culture medium (DMEM/F12 with 10% FBS). […]

C2C12 mouse myoblasts = experiment: Proliferation assay (CyQUANT), myoblasts; assay type: cell-based; conditions: for Proliferation assay, Myoblasts: each grid row one replicate
Experimental: (§1) Human umbilical vein endothelial cells (HUVECs; Sigma, 200P-05N) cultured in EGM-2 medium (Lonza, CC-4176) up to 3 passages, and primary mouse fibroblasts from C57BL/6 J mouse tails[26] (passages 2–3) were used. MCDB-131 medium (Thermo Fisher Scientific) with 100 mg ml^−1 penicillin/streptomycin and 2 mM glutamine was employed for proliferation assays. C2C12 mouse myoblasts (CellBank Australia) were cultured in a 1:1 ratio of DMEM to F10 medium (2 mM glutamine, 10% FBS, 100 units ml^−1 penicillin/streptomycin). HaCaT keratinocytes (a gift from R. Boyd) were cultured in DMEM without Ca^2+ and Mg^2+ (2 nM glutamine, 10% Chelex-treated FBS, 0.03 nM calcium chloride, 100 units ml^−1 penicillin/streptomycin) for at least 3 passages. Cells obtained from vendors were authenticated and certified negative for Mycoplasma contamination. For proliferation assays, FBS was reduced to 2% or kept at 10% for 24 h. […] Incubation for 48 h (fibroblasts, C2C12) or 72 h (HUVECs, HaCaTs) at 37 °C with 5% CO2 followed. Proliferation was determined using the CyQUANT Cell Proliferation Assay (Invitrogen), presented as fold change over basal proliferation (medium only). PerkinElmer EnVision multi-mode plate reader with EnSpire Manager software was used.

[2] = test system: Human umbilical vein endothelial cells (HUVECs); experiment: Proliferation assay (CyQUANT), endothelial cells; assay type: cell-based; conditions: for Proliferation assay, Endothelial cells: each grid row one replicate
Experimental: as §1

[3] = test system: Thbs1 expression in neutrophils; experiment: Gene expression (RNA-seq, qPCR of Thbs1) in neutrophils; assay type: cell-based, mouse; conditions: CGRP 1 nM, 4 h
Description: After collection, RNA extraction used the RNeasy Plus Micro Kit (Qiagen). For PCR with reverse transcription (RT–PCR) and quantitative PCR (qPCR), reverse transcription used ReverTra Ace (Toyobo). RT–PCR primers were: Human_Calcrl 5′-[…]-3′ and 5′-[…]-3′; Human_Ramp1 5′-[…]-3′ and 5′-[…]-3′; Mouse_Calcrl 5′-[…]-3′ and 5′-[…]-3′; Mouse_Ramp1 5′-[…]-3′ and 5′-[…]-3′. Human or mouse GAPDH primers were from Integrated DNA Technologies (51-01-07-12 and 51-01-07-13, respectively). PCR products were analysed by gel electrophoresis. qPCR was performed using LightCycle96 with software LightCycle96 (Roche Diagnostics) and TaqMan Assay primers from Thermo Fisher Scientific (Thbs1, Mm00449032_g1; Gapdh, Mm99999915_g1). For RNA-seq, RNA quantity and quality assessment, library preparation and sequencing were performed at the Medical Genomics Facility, Monash Health Translation Precinct (MHTP). RNA quantity was assessed using Qubit. RNA samples (20 ng) with RNA integrity number (RIN) value ≥ 7 were used for library preparation. […] Standard Illumina R1 primer was used (main cDNA read), followed by standard i7 primer for index or unique molecular identifier. R2 primer was present but not used as it will read into poly-A tail. […]
Fastq files were processed using the nfCore/RNAseq (v3.2) pipeline using the umi function. Reads were aligned to the Mus musculus GRCm38 reference using STAR aligner. […]

C57BL/6 J mice [4] = experiment: Spontaneous pain behaviour assessment; assay type: in vivo, mouse; conditions: intraplantar 1 μg wild-type CGRP or equimolar eCGRP, right hind paw, over 48 h, n = 8
C57BL/6 J mice [5] = experiment: Hot plate test; assay type: in vivo, mouse; conditions: intraplantar 1 μg, hot plate 52 °C, 30 min to 48 h, n = 8

## calcitonin gene-related peptide [CGRP]
[1]; CGRP 1 nM, Thbs1 siRNA 10 nM
  effect of CGRP on efferocytosis upon Thbs1 knockdown: abolished
[1]; CGRP 1 or 20 nM pre-treatment 24 h, in the absence and presence of IL-1β and TNF
  macrophage efferocytosis: marked increase
C2C12 mouse myoblasts; 1nM CGRP, medium 2% FBS
  Proliferation assay, Myoblasts: 0.98 and 0.95 and 1.48 and 1.23
C2C12 mouse myoblasts; 1nM CGRP, medium 10% FBS
  Proliferation assay, Myoblasts: 1.10 and 0.97 and 1.06 and 1.03
C2C12 mouse myoblasts; 20nM CGRP, medium 2% FBS
  Proliferation assay, Myoblasts: 1.03 and 0.85 and 1.58 and 1.08
C2C12 mouse myoblasts; 20nM CGRP, medium 10% FBS
  Proliferation assay, Myoblasts: 0.90 and 0.95 and 1.02 and 0.92
C2C12 mouse myoblasts; CGRP 1 or 20 nM, 2% or 10% FBS, 48 h
  proliferation of myoblasts: no significant effect
[2]; 1nM CGRP, medium 2% FBS
  Proliferation assay, Endothelial cells: 1.24 and 1.11 and 1.09 and 1.02
[2]; 1nM CGRP, medium 10% FBS
  Proliferation assay, Endothelial cells: 1.14 and 1.00 and 1.11 and 0.99 and 1.06
[2]; 20nM CGRP, medium 2% FBS
  Proliferation assay, Endothelial cells: 1.17 and 1.00 and 1.05 and 1.02
[2]; 20nM CGRP, medium 10% FBS
  Proliferation assay, Endothelial cells: 1.25 and 1.06 and 1.30 and 0.94 and 1.16 and 1.02
[2]; CGRP 1 or 20 nM, 2% or 10% FBS, 72 h
  proliferation of endothelial cells: no significant effect
[3]; RNA-seq
  Thbs1 expression in neutrophils: most upregulated gene
[3]; qPCR
  Thbs1 expression in Ramp1−/− neutrophils: did not upregulate
C57BL/6 J mice [4]
  pain behaviours: did not elicit significant pain behaviours
C57BL/6 J mice [5]
  thermal sensitivity: transient and slight increase
